# Measurements from patent publication US7803546B2, “Method of screening for sensitivity to kinase inhibitor therapy” (Cedars-Sinai Medical Center, priority 2002, dated 2010).
# System: phosphorylated-EGFR (p-EGFR)
# Assay: EGF-stimulated p-EGFR in 22Rv1 cells
# Format: cell-based
# Conditions: 10 nM IRESSA
structure (smiles),measurement,value
"COc1cc2ncnc(Nc3ccc(F)c(Cl)c3)c2cc1OCCCN1CCOCC1 [IRESSA, Gefitnib]",Effect on EGF-stimulated p-EGFR upregulation,completely blocked
